In patent US20090317414A1, “CANCER VACCINE COMPRISING A MUCIN 1 (MUC1) T CELL EPITOPE-DERIVED PEPTIDE” (4G VACCINES PTY LTD, priority 2006, published 2009) one finds Kd data, which are given here for 1 compound.

This test deals with T1, soluble H-2K^b (Mus musculus, UniProt P01901).
T1 construct: heavy chain residues 1-274 with C-terminal His-tag and β2-microglobulin residues 1-99; His-tag (C); made in house; host or cells: Drosophila melanogaster cells
T1 sequence (P01901 22-295): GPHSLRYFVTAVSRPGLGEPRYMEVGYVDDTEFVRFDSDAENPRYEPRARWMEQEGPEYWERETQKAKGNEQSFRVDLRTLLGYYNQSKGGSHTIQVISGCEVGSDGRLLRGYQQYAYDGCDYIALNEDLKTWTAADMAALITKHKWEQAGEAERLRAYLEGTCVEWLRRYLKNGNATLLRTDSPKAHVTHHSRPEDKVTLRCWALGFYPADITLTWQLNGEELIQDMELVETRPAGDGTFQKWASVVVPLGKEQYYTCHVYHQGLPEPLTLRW
T1 sequence (P01887 21-119 partner): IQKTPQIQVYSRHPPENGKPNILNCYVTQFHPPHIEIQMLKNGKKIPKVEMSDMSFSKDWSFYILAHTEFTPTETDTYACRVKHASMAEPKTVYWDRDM
Kind of test: Affinity measurements for binding of peptides to soluble H-2K^b (inhibition assay). As to the method: The soluble extracellular domains of H-2K^b (heavy chain […]-terminal His-tag and β2-microglobulin […]. melanogaster cells, under the control of a metallothionein promoter as previously described. Briefly, D. melanogaster cells were expanded to large scale (up to 6 L) in serum free Insect Xpress® media (Cambrex Corporation, East Rutherford, N.J., United States of America) and CuSO4 (625 μM final concentration) was added 3-5 days before harvesting to induce expression of H-2K^b. The supernatant was concentrated using a […] tangential flow concentrator (PALL Corporation, East Hills, N.Y., United States of America) using a 10 kDa MWCO membrane (PALL) and then loaded onto an Ni-NTA column and eluted using 10-250 mM imidazole buffer gradient, pH 7.5. […] Affinity measurements for binding of peptides to soluble H-2K^b molecules were performed as previously described.

As usually defined, the Kd is the concentration at which binding is half-saturated.

As for `CC(C)C[C@H](NC(=O)[C@H](C)NC(=O)[C@@H]1CCCN1C(=O)[C@H](Cc1ccc(O)cc1)NC(=O)[C@H](CC(N)=O)NC(=O)CNC(=O)[C@@H]1CCCN1C(=O)[C@H](C)NC(=O)[C@@H](N)Cc1ccccc1)C(=O)O` [SEV9, FAPGNYPAL, reference compound], the Kd is, setting by setting: (KD 4° C.) 5 nM; (KD 23° C.) 3 nM; (KD 37° C.) 30 nM.
